Measurements from article PMC12113668, “Discovery of Potential Scaffolds for Methionine Adenosyltransferase 2A (MAT2A) Inhibitors: Virtual Screening, Synthesis, and Biological Evaluation” (Molecules, 2025).

Sequences of proteins named here, by UniProt entry; tags and fusion partners are left off.
UniProt P31153, whole entry: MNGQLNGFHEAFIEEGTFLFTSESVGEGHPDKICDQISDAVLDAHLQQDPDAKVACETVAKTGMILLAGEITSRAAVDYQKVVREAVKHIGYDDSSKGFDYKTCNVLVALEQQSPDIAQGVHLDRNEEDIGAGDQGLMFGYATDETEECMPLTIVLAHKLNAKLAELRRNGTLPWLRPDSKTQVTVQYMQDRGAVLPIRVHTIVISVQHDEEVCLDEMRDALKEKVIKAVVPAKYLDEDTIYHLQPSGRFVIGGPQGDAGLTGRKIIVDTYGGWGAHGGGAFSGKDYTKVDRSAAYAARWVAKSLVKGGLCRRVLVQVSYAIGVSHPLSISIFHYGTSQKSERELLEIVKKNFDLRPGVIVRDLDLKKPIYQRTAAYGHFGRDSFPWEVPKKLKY

Target: MAT2A (Homo sapiens, UniProt P31153)
Test: MAT2A enzymatic assay (colorimetric Phosphate Assay Kit-PiColorLock)
Type: biochemical
Description: The inhibition of MAT2A by each compound was determined using the colorimetric Phosphate Assay Kit-PiColorLock (#ab270004) as described previously. […] Assay measurements were performed in 1X buffer containing 50 mM Tris, 50 mM KCl, 10 mM MgCl2, and 0.05% Brij-35 (pH 8.0) in a final assay volume of 5 μL. A total of 2.5 μL of MAT2A protein with a final concentration of 20 μg/mL was added to each well of a 384 well assay plate containing 100 nL of each concentration of test compound dissolved in DMSO and incubated for 30 min at room temperature. ATP (100 μM final concentration) and L-Met (100 μM final concentration) were subsequently added and incubated for 30 min at room temperature. Then 20 μL of the phosphate assay kit substrate was added to each well, incubated at room temperature for 30 min, and then the absorbance was measured at 620 nm on a plate reader.

SMILES: CN(C)c1nc(=O)n(-c2ccccc2)c2cc(Cl)ccc12 [6 (AZ-28), AZ-28, reference compound]
- Maximum Inhibition (%): 96%
